# From PubChem BioAssay AID504648 (National Center for Advancing Translational Sciences (NCATS), 2011)
# The whole screen tested about 390,000 compounds, of which about 610 (0.16%) were called active. The source calls these results inconclusive, neither active nor inactive. Calls come from the whole dose curve; as a rule, active = well fitted inhibition curve with a large enough effect; inconclusive = small, poorly fitted or top-dose-only effect, or effect the other way, or another doubt; inactive = no such curve, though single readings can be large or run the other way.
# Assay: Nrf2 qHTS screen for inhibitors: counterscreen for cytotoxicity
# Conditions: A549 ARE-Fluc cells, CellTiter-Fluor viability, 18-24 h
# Excerpt: NIH Molecular Libraries Probe Production Network [MLPCN]
# NIH Chemical Genomics Center [NCGC]
# Assay Provider: Shyam Biswal, Johns Hopkins University
# Nrf2 is a transcription factor that maintains cellular redox homoestasis and protects cells from xenobiotics. Nrf2 binds to the antioxidant response element (ARE) to induce gene expression of a broad spectrum of genes that encode for antioxidants. […] Finding a small molecule that act as an inhibitor of Nrf2 function would represent a novel therapeutic target that could lead to improvement in survival of patients undergoing chemo- and/or radio- therapy.
# So here we implemented a counterscreen to weed out the cytotoxic compounds.
# 1. Shibata, T., et al., Genetic Alteration of Keap1 Confers Constitutive Nrf2 Activation and Resistance to Chemotherapy in Gallbladder Cancer. Gastroenterology, 2008.
# 2. Sjoblom, T., et al., The consensus coding sequences of human breast and colorectal cancers. Science, 2006. 314(5797): p. 268-74.
# NCGC Assay Protocol Summary:
# A concentration-response assay was performed with A549 ARE_Fluc cells which are suspended in 5% FBS OPTI-MEM. Five uL were dispensed into 1536-well white TC-treated plate using the Kalypsys dispenser to achieve a density of 5000 cells/well in all columns except column 1. The plate is incubated at 37deg C at 5% CO2 for 2 hours before 23 nL of compounds are added with the Kalypsys pin tool equipped with a 1,536-pin array containing 10-nL slotted pins (FP1S10, 0.457-mm diameter, 50.8 mm long; V&P Scientific). The control compounds Budesonide and Staurosporine are both added at a concentration of 2mM and Budesonide is also added as a 1:10 titration, starting at 200uM, to achieve dose-response. After an 18-24 hour incubation at 37deg C at 5% CO2, 5ul of medium is added to column 1. Afterwards 1ul of 5x of CellTiter-Fluor (Promega) is added to every well. The plate is then incubated at 37deg C at 5% CO2 for 30 minutes before they are read on the ViewLux (Perkin Elmer) for a fluorescent read Ex=405(10)/Em=525(10) for a 3 second exposure, 2x binning, and high gain. Then 3 uL of 3x BugLite is dispensed into all wells and the plate is incubated at ambient room temperature for 15 minutes. Afterwards another ViewLux read is performed using the clear filter to get a luminescent read with the settings of 40 second exposure, 2x binning, and high gain. Cytotoxicity is assessed through the first fluorescent read and then biochemical activity against Nrf2 is measured in the luminescent read.
# Potency is the fitted concentration of half-maximal effect.
row,Structure (SMILES),Potency
1,CCC1=CC2Cc3nc4ccc(Cl)cc4c(N)c3C(C1)C2 (stereo not given),inconclusive: 29.1 µM
2,CC(O)C1C=CC=CC(=O)OC2CC3OC4C5OC5(C)CCC4(COC(=O)C4OC4(C)C(O)CO1)C2(C)C31CO1 (stereo not given),inconclusive: 1.84 µM
3,Cc1c2c(nc3ccccc13)SC(C(Cl)Cl)C2 (stereo not given),inconclusive: 20.6 µM
4,O=[N+]([O-])c1cc([N+](=O)[O-])c(-c2ccn[nH]2)s1,inconclusive: 29.1 µM
5,O=[N+]([O-])c1ccc(-c2cc([N+](=O)[O-])c(O)c([N+](=O)[O-])c2)cc1,inconclusive: 18.4 µM
6,CC(O)C1C=CC=CC(=O)OC2CC3OC4C5OC5(C)C(O)CC4(COC(=O)C(O)C(C)CCO1)C2(C)C31CO1 (stereo not given),inconclusive: 1.46 µM
7,CC1=CC2OC3CC4OC(=O)C=CC=CC(C(C)O)OCC(O)C5(C)OC5C(=O)OCC2(CC1O)C4(C)C31CO1 (stereo not given),inconclusive: 1.3 µM
8,Cn1c(=O)[nH]c(=O)c2c1nc(Br)n2Cc1ccccc1,inconclusive: 0.731 µM
9,CC1=CC2OC3CC4OC(=O)C=CC=CC(=O)OCCC(C)C(O)C(=O)OCC2(CC1)C4(C)C31CO1 (stereo not given),inconclusive: 0.184 µM
10,O=c1c2cc([N+](=O)[O-])ccc2[nH]c2c([N+](=O)[O-])cc([N+](=O)[O-])cc12,inconclusive: 16.4 µM
